These results are taken from patent US20080255104A1, “Nsaid Compositions” (EQUITECH CORPORATION, priority 2004, published 2008).

This series can be described thus: Oral bioavailability of ibuprofen crushed tablets in control and vagal-suppressed (Pain Model) rats. It is filed as in vivo, Sprague-Dawley rats. The settings on record: propantheline-treated (vagal suppression) rats, 20 mg/kg oral. An excerpt:
Delayed absorption caused by vagal suppression that has previously been reported in the literature (e.g., Jamali & Axelson, 1997) was used to test the absorption rates of new meloxicam formulations.
The animal models are adult male Sprague-Dawley rats with body weight of 250-300 g, and which were cared for in accordance with the principles and guidelines of the Canadian Council of Animal Care. All rats were catheterized in the right jugular vein for sample collection.
An animal model having suppressed vagal properties were produced by administering (intraperitoneal injection) to the rats two 20 mg/kg doses of propantheline (test, n=6), an anticholinergic agent with known vagal suppressive properties, the first dose at 2 hours prior to administration of an NSAID, and the second at 1 hour prior.
The tablets were crushed gently and small pieces were administered into the stomach via a plastic tube followed by 0.5 mL tap water. Animals were fasted after the first dose of propantheline until 4 hours post-meloxicam dose. They had free access to water.

Turning to `CC(C)Cc1ccc(C(C)C(=O)O)cc1` (racemic) [ibuprofen], the “AUC(0-1)” value turned out to be 12.2 µg/h/mL.
